CC[C@H]1OC(=O)C[C@@H](O)[C@H](C)[C@@H](O[C@@H]2O[C@H](C)[C@@H](O[C@H]3C[C@@](C)(O)[C@@H](O)[C@H](C)O3)[C@H](N(C)C)[C@H]2O)[C@@H](CC=O)C[C@@H](C)C(=O)/C=C/C(C)=C/[C@@H]1CO[C@@H]1O[C@H](C)[C@@H](O)[C@@H](OC)[C@H]1OC.O=C(O)[C@H](O)[C@@H](O)C(=O)O
solubility (mole fraction)
Details | 278.15 K | 283.15 K | 288.15 K | 293.15 K | 298.15 K | 303.15 K | 308.15 K | 313.15 K | 318.15 K | 323.15 K
in ethanol | 0.000371 | 0.000428 | 0.000506 | 0.000598 | 0.000748 | 0.000839 | 0.000993 | 0.00125 | 0.0015 | 0.0018
in isopropanol | 0.000124 | 0.000163 | 0.000213 | 0.000253 | 0.000339 | 0.000405 | 0.000515 | 0.000653 | 0.000843 | 0.00107
in methanol | 0.00252 | 0.00285 | 0.0032 | 0.00358 | 0.00397 | 0.00453 | 0.00515 | 0.00575 | 0.00675 | 0.00788
in n-propanol | 0.000191 | 0.000225 | 0.000296 | 0.000347 | 0.000399 | 0.000464 | 0.000586 | 0.000694 | 0.000879 | 0.00108

— BigSolDB 2.1
